# From BindingDB's records for doi:10.1021/jm960062t (Eli Lilly, 1996)
# Target: 5-hydroxytryptamine receptor 2C (Homo sapiens) (UniProt P28335)
# Test: Binding affinity analysed on 5-HT 2C in human clone using [3H]mesulergine as radioligand
row,Ki,Compound
1,1510 nM,Cc1cc(NC(=O)Nc2ccc3c(ccn3C)c2)sn1 [CAS_3277600]
2,10 nM,Cn1ccc2cc3c(cc21)CCN3C(=O)Nc1cccnc1
